## Yeast mating assay 1: variants of the scFv Ab-14

Binding partner: SARS-CoV-2 spike HR2 peptide, sequence PDVDLGDISGINAS.

Parent scFv Ab-14: VH joined to VL by three GGGGS repeats. Changes lie in the light chain CDRs alone.
VH: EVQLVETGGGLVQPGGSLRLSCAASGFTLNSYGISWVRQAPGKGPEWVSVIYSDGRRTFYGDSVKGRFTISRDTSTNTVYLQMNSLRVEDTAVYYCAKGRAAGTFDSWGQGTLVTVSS
VL: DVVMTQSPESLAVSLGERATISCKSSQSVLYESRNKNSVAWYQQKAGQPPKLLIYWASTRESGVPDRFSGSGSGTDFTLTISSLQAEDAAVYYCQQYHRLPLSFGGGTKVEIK

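Library AAYL50 holds single substitutions and randomly drawn double and triple substitutions in the CDRs. Affinity was read by AlphaSeq, a pooled yeast mating assay with surface-displayed partners. The frequency of each diploid, read from paired DNA barcodes, reflects how well the two displayed proteins bind. Read counts were normalised to the haploid input and turned into Kd by a linear fit to BCL2-family pairs of known affinity, for each replicate. There are three technical replicates.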

Changes read parent residue, position, new residue, counted from the first residue of the VL shown.
This list gathers variants with a substitution at E61 (VL, numbered from residue 1).
The Kd shown is the geometric mean over detected replicates; a lower Kd is a better binder.
"nd" means that the variant was in the library but no mating with the target was seen in any replicate; the authors take this as a sign of poor binding, and no number exists.
In this assay the parent's reference entry averaged 4.4 nM; its copy inside this library read 48 nM.

T59M E61D: 11 nM (3 of 3 replicates; controls 1 of 9).
E32A E61M L102C: nd (0 of 3 replicates; controls 0 of 9).
E32H K36P E61N: 20 nM (3 of 3 replicates; controls 3 of 9).
S28Q Y31E E61Y: 3.3 µM (3 of 3 replicates; controls 0 of 9).
W56L T59V E61T: 160 nM (3 of 3 replicates; controls 4 of 9).
N35I E61M L100S: nd (0 of 3 replicates; controls 2 of 9).
Y31G S33A E61C: 7.8 nM (3 of 3 replicates; controls 3 of 9).
V39K E61M L100N: nd (0 of 3 replicates; controls 3 of 9).
R34W E61N: 12 nM (3 of 3 replicates; controls 4 of 9).
R60P E61L Q96P: 1.9 µM (3 of 3 replicates; controls 2 of 9).
S28M E61V S62C: 28 nM (3 of 3 replicates; controls 2 of 9).
S33L E61A H98R: 1.4 µM (3 of 3 replicates; controls 6 of 9).
T59M E61A S103Q: 16 nM (3 of 3 replicates; controls 2 of 9).
W56A A57R E61I: 3.1 nM (3 of 3 replicates; controls 2 of 9).
S28W N37D E61R: nd (0 of 3 replicates; controls 0 of 9).
A57E E61N H98S: 38 nM (3 of 3 replicates; controls 0 of 9).
Y31G S58Q E61L: 24 nM (3 of 3 replicates; controls 2 of 9).
S33N E61V Q96F: 9.3 nM (3 of 3 replicates; controls 1 of 9).
S26C S33T E61G: nd (0 of 3 replicates; controls 0 of 9).
V39H E61H: nd (0 of 3 replicates; controls 0 of 9).
Q27T W56Q E61V: 4.1 nM (3 of 3 replicates; controls 3 of 9).
K24I E61H S103G: 6.9 µM (2 of 3 replicates; controls 1 of 9).
E61T: 12 nM (3 of 3 replicates; controls 7 of 9).
N37H E61Q S62T: 19 nM (3 of 3 replicates; controls 2 of 9).
R60S E61G: 22 µM (3 of 3 replicates; controls 3 of 9).
N37A E61F: nd (0 of 3 replicates; controls 4 of 9).
V29Q E61V S62R: 220 nM (3 of 3 replicates; controls 8 of 9).
S38R W56C E61G: 4.6 µM (2 of 3 replicates; controls 0 of 9).
S25G L30M E61L: 33 nM (3 of 3 replicates; controls 2 of 9).
S25I A57K E61Y: 7.3 nM (3 of 3 replicates; controls 3 of 9).
W56C E61H S62H: 160 nM (3 of 3 replicates; controls 1 of 9).
E61M: 7.7 nM (3 of 3 replicates; controls 3 of 9).
L30S E61C S62V: 51 nM (3 of 3 replicates; controls 0 of 9).
S33P S38V E61M: 4.9 µM (1 of 3 replicates; controls 0 of 9).
Q27N V39K E61R: nd (0 of 3 replicates; controls 0 of 9).
S58V E61K: 1.0 µM (1 of 3 replicates; controls 0 of 9).
K24N T59S E61L: 440 nM (2 of 3 replicates; controls 0 of 9).
E61A Q96M R99P: 680 nM (2 of 3 replicates; controls 0 of 9).

The 3 strongest on average among those seen in every replicate, once more:

W56A A57R E61I: 3.1 nM (3 of 3 replicates; controls 2 of 9).
Q27T W56Q E61V: 4.1 nM (3 of 3 replicates; controls 3 of 9).
S25I A57K E61Y: 7.3 nM (3 of 3 replicates; controls 3 of 9).

Three control strains display no target. For library AAYL50, 18% of the pairings with them gave a signal, with a median of 15 µM and one signal in twenty below 970 nM, so weak values seen in few replicates may be background. Also given: how often the same scFv was detected with the empty control strains.

Data: MIT Lincoln Laboratory AlphaSeq set, Engelhart et al. 2022, doi:10.1038/s41597-022-01779-4, as distributed in FLAb.